Reference: patent US20240034987A1, “SUPPLEMENTED SERUM-FREE MEDIA FOR CULTURED MEAT PRODUCTION” (Trustees of Tufts College, priority 2020, published 2024)

Key:
Assay type in all cases: cell-based
[1] = system: bovine satellite cells (BSCs); assay: Short-term growth analysis (3 and 4 days, dsDNA quantitation, brightfield imaging)
Protocol: Homemade B8 medium was prepared using store-bought components and a previously described formulation and method of preparation. See, Kuo, H. H. et al. Negligible-Cost and Weekend-Free Chemically Defined Human iPSC Culture. Stem Cell Reports 14, 256-270. Table 1 includes the formulation. Additionally, HiDef-B8 medium aliquots were generously provided by Defined Bioscience (Defined Bioscience #LSS-201, San Diego, CA, USA) and added DMEM/F12 with 1% antibiotic/antimycotic. Short term BSC growth (3 and 4 days) was analyzed for mixtures of serum-containing and serum-free media, as well as for pure B8 media with reduced growth factor concentrations and/or with the addition of various media supplements (Table 2). Briefly, BSCs were thawed (passage number <2) and plated in BSC-GM on 96-well tissue-culture plastic plates for each timepoint at a density of 2,500 cells/cm^2 with 0.25 ug/cm^2 iMatrix recombinant laminin-511. After 24 hours, BSC-GM was removed, cells were washed 1× with DPBS, and new media (e.g., B8+/−supplementation) was added. A list of supplements and concentrations can be found in Table 2. Media was changed on day 3, and on days 3 and 4 cells were imaged, media was aspirated from appropriate plates, and plates were frozen at −80° C. Once all timepoints were frozen, cell number was analyzed using a FluoReporter dsDNA quantitation kit (ThermoFisher #F2962) according to the recommended protocol and with fluorescence readings performed on a Synergy H1 microplate reader (BioTek Instruments, Winooski, VT, USA) using excitation and emission filters centered at 360 and 490 nm, respectively. Cell number at 3 and 4 days was analyzed relative to pure B8 or HiDef media.

[2] = system: bovine satellite cells (BSCs); assay: Long-term growth analysis (seven passages over 28 days, cell counts); conditions: for final (28-day) cell yield compared with 0.8 mg/mL: starting population 24,000
Protocol: For generating long-term growth curves, BSCs were thawed and plated (P1) onto 6-well culture plates (triplicate wells) in BSC-GM with 0.25 ug/cm^2 iMatrix laminin-511. After allowing cells to adhere overnight, media was removed, cells were washed 1× with DPBS, and either BSC-GM, B8, Beefy-9 (40 ng/mL FGF-2) or Beefy-9 (5 ng/mL FGF-2) were added to cells. Upon reaching ˜70% confluency, cells were rinsed with DPBS, harvested with TrypLE Express, and counted using an NC-200 automated cell counter (duplicate counts for each well). Cells were then pelleted at 300 g, resuspended in BSC-GM or B8 media, re-counted, and seeded onto new 6-well plates at 2,500 cells/cm^2 with 0.25 ug/cm^2 iMatrix laminin-511 (cells in BSC-GM) or 1.5 ug/cm^2 recombinant vitronectin (cells in B8). After allowing cells to adhere overnight, media was replaced with appropriate media (BSC-GM, B8, Beefy-9 (40 ng/mL FGF-2) or Beefy-9 (5 ng/mL FGF-2). This process was repeated over 28 days and seven passages. Throughout culture, cells were fed every two days. When seeding cells for passages 2, 4, 6, and 7, additional wells were seeded for staining for myosin heavy chain (P2, P4 and P6) or lipid accumulation (P7).
Statistical analysis was performed with GraphPad Prism 9.0 software (San Diego, CA, USA). Short-term cell growth analyses were performed via one-way or two-way ANOVA, as appropriate, with multiple comparisons performed with the Tukey's HSD post-hoc test. Regression analysis (FIG. 3A) was performed via nonlinear regression (least squares; exponential (Malthusian) growth) and is shown alongside 95% confidence interval. Doubling time (FIG. 5B) was determined through nonlinear regression (least squares; exponential (Malthusian) growth) for each biological replicate (well) of each passage, using technical replicates (duplicate counts) in generating nonlinear regressions. P values <0.05 were treated as significant. Unless otherwise stated, errors are given as ±standard deviation.

[3] = system: bovine satellite cells (BSCs); assay: Serum-free differentiation, myosin heavy chain staining / fusion index; conditions: 6.4 mg/mL rAlbumin (especially with reduced FGF)
Protocol: Throughout long-term culture, a population of cells at passages 2, 4, and 6 were cultured to confluency in serum-containing or serum-free conditions, and media was changed to a previously described serum-free differentiation media consisting of Neurobasal (Invitrogen #21103049, Carlsbad, CA, USA) and L15 (Invitrogen #11415064) basal media (1:1) supplemented with 1% antibiotic/antimycotic, 10 ng/mL insulin-like growth factor 1 (IGF-1; Shenandoah Biotechnology #100-34AF-100UG, Warminster, PA, USA) and 100 ng/mL epidermal growth factor (EGF; Shenandoah Biotechnology #100-26-500UG). Cells were differentiated for 4-6 days (changing media every two days).
To verify myogenicity of cells differentiated in serum-free media, cells from above were fixed, stained, and imaged as previously described, using primary antibodies for MHC (Developmental studies hybridoma bank #MF-20), phalloidin 594 (1:100), appropriate secondary antibodies (ThermoFisher #A-11001, 1:1000), and Fluoroshield mounting medium with DAPI.

Substance: rAlbumin: recombinant human albumin, media supplement (Sigma A9731-1G)
- role in growth improvement by combinations of supplements ([1]; rAlbumin 800 μg/mL in B8 with combinations of factors, 4 days): driving factor in all significant improvements
- improvement in 4-day growth compared to Beefy-9's 800 ug/mL ([1]; rAlbumin 11.2 mg/mL (highest concentration)): 8.5 fold
- short-term growth with increasing rAlbumin concentration ([1]; rAlbumin over 800 ug/mL up to 11.2 mg/mL, 3 & 4 days): drastic increase in growth
- improvement in growth compared with plain B8 ([1]; supplement added to B8, growth over four days): ~4 fold
- BSC proliferation compared to B8 media alone ([1]; supplement in B8, range of concentrations, growth over four days): significantly improved
- growth compared with 0.8 mg/mL rAlbumin at day 28 ([2]; 1.6 mg/mL rAlbumin): No improvement
- growth compared with 0.8 mg/mL rAlbumin at earlier passages ([2]; 1.6 mg/mL rAlbumin): consistent improvement
- final (28-day) cell yield compared with 0.8 mg/mL ([2]; 3.2 mg/mL rAlbumin): significant increases in cell yield
- final (28-day) cell yield compared with 0.8 mg/mL ([2]; 6.4 mg/mL rAlbumin): significant increases in cell yield
- degree of MF20 staining, myotube density and diameter [3]: reduced
